1 molecule from patent US20140378382A1 (WISCONSIN ALUMNI RESEARCH FOUNDATION, published 2014) can be followed below.

The target in the experiment is T1, PTHR-1 (species and cells not stated for the assay) (Homo sapiens (Human), UniProt Q03431 27-593).
T1 sequence: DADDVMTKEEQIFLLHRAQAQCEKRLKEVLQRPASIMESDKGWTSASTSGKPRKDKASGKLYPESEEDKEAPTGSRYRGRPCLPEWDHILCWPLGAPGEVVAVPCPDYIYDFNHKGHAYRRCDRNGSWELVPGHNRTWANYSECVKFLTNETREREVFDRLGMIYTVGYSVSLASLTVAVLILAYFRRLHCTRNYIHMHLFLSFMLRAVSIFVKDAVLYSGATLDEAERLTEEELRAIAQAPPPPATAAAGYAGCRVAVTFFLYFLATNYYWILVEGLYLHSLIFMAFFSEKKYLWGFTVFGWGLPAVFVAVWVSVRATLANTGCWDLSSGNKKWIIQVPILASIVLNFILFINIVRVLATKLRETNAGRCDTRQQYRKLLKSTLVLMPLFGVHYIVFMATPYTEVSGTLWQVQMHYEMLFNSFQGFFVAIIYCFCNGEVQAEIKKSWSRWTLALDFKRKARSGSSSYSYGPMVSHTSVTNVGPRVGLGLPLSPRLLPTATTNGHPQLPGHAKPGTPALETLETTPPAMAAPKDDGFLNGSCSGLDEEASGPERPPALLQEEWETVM
Briefly: cell-based or functional assay.

B1: D6 bPTH(7-34) dTrp12 (peptide)
peptide: FMHNLWKWLSSMERVEWLRKKLQDVHNF
modifications: D-Trp at position 12 (PTH numbering); β3 marks lost (D6 pattern 14, 18, 22, 26, 30, 34; W printed at 14); C-terminal amide
B1: the “EC50 of PTH(1-34) signaling with 1 µM inhibitor” value is 2.6 nM.
